We go through one molecule from article PMC9891691, “Chaperoning of specific tau structure by immunophilin FKBP12 regulates the neuronal resilience to extracellular stress” (Science Advances, 2023).

The experiment “2N4R tau (hTau40, …)” addresses T1, 2N4R tau (hTau40, microtubule-associated protein tau) (human, UniProt P10636-8).
T1 construct: human microtubule-associated protein tau, isoform 2N4R (hTau40), 441 residues as printed; UniProt ID printed as '10636-8'; Uniformly 15N-labelled (or 13C-15N-labelled) for NMR; unlabelled for the aggregation assays and for the fibrils pelleted with FKBP12; In the co-sedimentation assay the protein stood as cofactor-free amyloid fibrils; also called MAPT; monomeric tau
Nature of the experiment: NMR titration; 1H-15N HSQC of 15N-labelled 2N4R tau (45 uM) without or with unlabelled FKBP12 (90 or 225 uM); 50 mM NaP, 10 mM NaCl, 1 mM DTT, pH 6.8, 278 K, 600 MHz. As to conditions: both partners purified.

A further experiment deals with T2, Y394N 2N4R tau (human, UniProt P10636-8, Y394N).
T2 construct: human microtubule-associated protein tau, isoform 2N4R (hTau40), 441 residues as printed, with Y394N; UniProt ID printed as '10636-8'; Uniformly 15N-labelled; also called Y394N-mutant tau; source: E. coli BL21(DE3), pNG2 vector, purified
As to the kind of experiment: NMR titration; 1H-15N HSQC of 15N-labelled phosphorylated 2N4R tau or Y394N 2N4R tau (30 uM) without or with unlabelled FKBP12 (60 or 150 uM); 50 mM NaP, 10 mM NaCl, 1 mM DTT, pH 6.8, 278 K, 800 MHz. The conditions noted are these: both partners purified.

B1: FKBP12, the 12-kDa FK506-binding protein (FKBP prolyl isomerase 1A) (enzyme)
chain: not shown
notes: human FKBP12 (FKBP prolyl isomerase 1A); Unlabelled in the NMR titrations; also called immunophilin FKBP12; source: E. coli BL21, pET28a, purified (nickel column, TEV cleavage, second nickel column, SEC); not shown: His tag, N-terminal, cleaved
Turning to B1, the binding result with 2N4R tau (hTau40, …) is on record as “binds”; with Y394N 2N4R tau, “binds”.
